Reference: patent US6348445B1, “Biologically active peptides with reduced toxicity in animals and a method for preparing same” (priority 1992, dated 2002)

Columns and labels:
S. aureus ATCC 29213 = assay type: cell-based
[1] = system: MDA-435 human breast carcinoma cells; assay type: cell-based; conditions: 24 h
Description: (§1) Human lung carcinoma cells, A-549 (ATCC), and human breast carcinoma cells, MDA-435 (from Sandoz), were grown in Ham's F12K medium (GIBCO-BRL) supplemented with […] fetal bovine serum. Human chronic myelogenous leukemia cells, K-562 (ATCC), were maintained in RPMI 1640 medium (GIBCO-BRL) supplemented with 10% fetal bovine serum. Human melanoma cell line, WM 1617 (from the Wistar Institute), was maintained in 2% Tumor media.
(§2) Cytotoxicity assays were performed on the cell lines described above using CytoLite (Packard Instrument Company) following the manufacture's instruction. Briefly, 2×10^4cells/well were seeded into black, 96-well ViewPlates (Packard Instrument Company) in 100 μl/well growth medium. Ser. dilutions of Magainin peptides were then added into the cells and the plates incubated for 24 hours in a humidified 5% CO2 atmosphere at 37° C. Following incubation, 25 μl/well of CytoLite activator solution was added followed by 125 μl/well of amplifier solution. Luminescence was measured on TopCount Microplate Scintillation and Luminescence counter (Packard Instrument Company) using a 1 second count time in SPC (single photon counting) mode at 25 ° C. All assays were performed in triplicate. The peptides tested in this assay were MSI-78(SEQ ID NO: 154 —NH2), MSI-1858(SEQ ID NO: 154 —NH2 Methane Sulfonate), MSI-344(SEQ ID NO: 154 —OH) and MSI-1857(SEQ ID NO: 154 —OH Methane Sulfonate). The results of these assays are shown in FIGS. 2-9 with the corresponding IC50 values in Table VIII. In all cases the activity of the methane sulfonated peptide was as good or better than the parent peptide as indicated by both the survival curves and the IC50 values.

[2] = system: A-549 human lung carcinoma cells; assay type: cell-based; conditions: 24 h
Description: as §1, §2

[3] = system: WM 1617 human melanoma cells; assay type: cell-based; conditions: 24 h
Description: as §1, §2

[4] = system: K-562 human chronic myelogenous leukemia cells; assay type: cell-based; conditions: 24 h
Description: as §1, §2

[5] = MTD and LD50, single intravenous administration; assay type: in vivo, mice; conditions: for No. of Survivors Day 1 / No. of Survivors Day 2 / No. of Survivors Day 3 / No. of Survivors Day 4 / No. of Survivors Day 5 / No. of Survivors Day 6 / No. of Survivors Day 7 / No. of Survivors Day 8: 4 injected
Description: Determinations of a maximal tolerated dose (MTD) of a single intravenous (i.v.) administration or intraperitoneal (i.p.) administration of MSI-344 or MSI-1857 in 100 CD-1®BR mice were done. The MTD of a single intravenous (i.v.) administration was 10 mg/kg for MSI-344 and 60 mg/kg for MSI-1857. The MTD of a single intraperitoneal (i.p.) administration was less than 20 mg/kg for MSI-344 and between 50 and 100 mg/kg for MSI-1857.
To determine estimates of MTDs and LD50s of MSI-344 and MSI-1857 administered intravenously or intraperitoneally as a single bolus in mice.
A 5 mg/mL solution of MSI-344 was made in saline (0.9% sodium chloride injection USP, Abbott, North Chicago, Ill.) corrected for peptide content. Solutions of MSI-344 at concentrations of 4, 3, 2, 1.5, 1, and 0.5 mg/mL were made by diluting the 5 mg/mL solution using saline as diluent. (Errors were made in solution preparation of the 4, 3, and 2 mg/mL solutions and results from groups with animals doses with these solutions, i.e. groups 12, 13, and 14, were eliminated from study analysis). A 20 mg/mL solution of MSI-1857 was made in saline. Solutions of MSI-1857 at concentrations of 15, 10, 8, 6, and 5 mg/mL were made by diluting the 20 mg/mL solution using saline as diluent.
Another 5 mg/mL solution of MSI-344 was made in saline corrected for peptide content. Solutions of 4, 3 and 2 mg/mL were made by diluting the 5 mg/mL solution using saline as diluent. A 15 mg/mL solution of MSI-1857 in saline was made corrected for peptide content. A 10 mg/mL solution was made by diluting the 15 mg/mL solution with saline.
Mice (four mice per dose group) were intravenously or intraperitoneally administered a single bolus of MSI-344 or MSI-1857 using an injection volume of 10 mL/kg of the appropriate solution concentration. If the first two mice in a group died immediately (within 10 secs) after administration of a dose then no other mice injected with this dose of this compound (for ethical reasons). Survival was monitored daily for at least eight days post-administration. Study designs are presented in Tables IX and X. Toxicity Study # 262 was a supplement to Toxicity Study #261.

[6] = Tox Study #261 group 6, 100 mg/kg IV
[7] = Tox Study #261 group 7, 80 mg/kg IV
[8] = Tox Study #261 group 8, 60 mg/kg IV
[9] = Tox Study #261 group 9, 50 mg/kg IV

CC[C@H](C)[C@H](NC(=O)CNCS(=O)(=O)O)C(=O)NCC(=O)N[C@@H](CCCCNCS(=O)(=O)O)C(=O)N[C@@H](Cc1ccccc1)C(=O)N[C@@H](CC(C)C)C(=O)N[C@@H](CCCCNCS(=O)(=O)O)C(=O)N[C@@H](CCCCNCS(=O)(=O)O)C(=O)N[C@@H](C)C(=O)N[C@@H](CCCCNCS(=O)(=O)O)C(=O)N[C@@H](CCCCNCS(=O)(=O)O)C(=O)N[C@@H](Cc1ccccc1)C(=O)NCC(=O)N[C@@H](CCCCNCS(=O)(=O)O)C(=O)N[C@@H](C)C(=O)N[C@@H](Cc1ccccc1)C(=O)N[C@H](C(=O)N[C@@H](CCCCNCS(=O)(=O)O)C(=O)N[C@H](C(=O)N[C@@H](CC(C)C)C(=O)N[C@@H](CCCCNCS(=O)(=O)O)C(=O)N[C@@H](CCCCNCS(=O)(=O)O)C(=O)O)[C@@H](C)CC)C(C)C [MSI-1857]
MIC S. aureus ATCC 29213 (S. aureus ATCC 29213): 128 µg/mL (≈ 37.4 µM) | IC50 [1]: 4 µM | IC50 [2]: 6 µM | IC50 [3]: 3 µM | IC50 [4]: 7.5 µM | No. of Survivors Day 1 [5, 6]: 0 | No. of Survivors Day 2 [5, 6]: 0 | No. of Survivors Day 3 [5, 6]: 0 | No. of Survivors Day 4 [5, 6]: 0 | No. of Survivors Day 5 [5, 6]: 0 | No. of Survivors Day 6 [5, 6]: 0 | No. of Survivors Day 7 [5, 6]: 0 | No. of Survivors Day 8 [5, 6]: 0 | No. of Survivors Day 1 [5, 7]: 1 | No. of Survivors Day 2 [5, 7]: 1 | No. of Survivors Day 3 [5, 7]: 1 | No. of Survivors Day 4 [5, 7]: 1 | No. of Survivors Day 5 [5, 7]: 1 | No. of Survivors Day 6 [5, 7]: 1 | No. of Survivors Day 7 [5, 7]: 1 | No. of Survivors Day 8 [5, 7]: 1 | No. of Survivors Day 1 [5, 8]: 4 | No. of Survivors Day 2 [5, 8]: 4 | No. of Survivors Day 3 [5, 8]: 4 | No. of Survivors Day 4 [5, 8]: 4 | No. of Survivors Day 5 [5, 8]: 4 | No. of Survivors Day 6 [5, 8]: 4 | No. of Survivors Day 7 [5, 8]: 4 | No. of Survivors Day 8 [5, 8]: 4 | No. of Survivors Day 1 [5, 9]: 4 | No. of Survivors Day 2 [5, 9]: 4 | No. of Survivors Day 3 [5, 9]: 4 | No. of Survivors Day 4 [5, 9]: 4 | No. of Survivors Day 5 [5, 9]: 4 | No. of Survivors Day 6 [5, 9]: 4 | No. of Survivors Day 7 [5, 9]: 4 | No. of Survivors Day 8 [5, 9]: 4 | LD50 ([5]; mouse, in vivo, iv, CD-1 mice, estimated from dose response curves): 73 mg/kg | MTD ([5]; mouse, in vivo, iv, CD-1 mice, read-out: MTD of a single intravenous (i.v.) administration): 60 mg/kg | fold increase in safety compared to MSI-344 ([5]; single administration i.v. or i.p.): approximately 5 fold

In brackets after ≈: the same amount, converted by molar mass.
